According to publication PMC12171880, “Selectivity and Safety Characterization of a Xanthine–Imidazothiazole Lead Structure: a Novel Tryptophan Hydroxylase Inhibitor of Peripheral Serotonin Synthesis” (ACS Pharmacology & Translational Science, 2025):

How the values were obtained:
human recombinant PAH = target: T1, human recombinant PAH (Homo sapiens, UniProt P00439); assay: PAH enzymatic activity assay (fluorescence, 96-well); format: biochemical; conditions: 100 nM
T1 construct: expression vectors for full-length human PAH (UniProt entry P00439); made in house; host or cells: E. coli T7 Express (NEB) with pRARE2
T1 sequence (P00439 1-452): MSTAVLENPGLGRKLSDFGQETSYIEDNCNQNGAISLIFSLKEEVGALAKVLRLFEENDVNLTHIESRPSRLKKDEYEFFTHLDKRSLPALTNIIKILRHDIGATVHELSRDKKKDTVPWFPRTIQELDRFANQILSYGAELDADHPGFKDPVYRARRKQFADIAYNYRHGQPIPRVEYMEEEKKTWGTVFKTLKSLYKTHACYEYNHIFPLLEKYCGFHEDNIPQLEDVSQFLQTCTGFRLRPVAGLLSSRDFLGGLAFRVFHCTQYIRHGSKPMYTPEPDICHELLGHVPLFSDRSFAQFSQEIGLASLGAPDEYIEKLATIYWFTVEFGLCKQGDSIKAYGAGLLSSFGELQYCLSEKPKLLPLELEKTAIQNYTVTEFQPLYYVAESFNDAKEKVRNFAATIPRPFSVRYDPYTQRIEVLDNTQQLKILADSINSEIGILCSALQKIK

human recombinant TPH1 = target: T2, human recombinant TPH1 (Homo sapiens, UniProt P17752); assay: TPH1 enzymatic activity assay (fluorescence, 96-well); format: biochemical
T2 construct: Full-length human TPH1 and TPH2 (UniProt entries P17752 and Q8IWU9); MBP (N); made in house
T2 sequence (P17752 1-444): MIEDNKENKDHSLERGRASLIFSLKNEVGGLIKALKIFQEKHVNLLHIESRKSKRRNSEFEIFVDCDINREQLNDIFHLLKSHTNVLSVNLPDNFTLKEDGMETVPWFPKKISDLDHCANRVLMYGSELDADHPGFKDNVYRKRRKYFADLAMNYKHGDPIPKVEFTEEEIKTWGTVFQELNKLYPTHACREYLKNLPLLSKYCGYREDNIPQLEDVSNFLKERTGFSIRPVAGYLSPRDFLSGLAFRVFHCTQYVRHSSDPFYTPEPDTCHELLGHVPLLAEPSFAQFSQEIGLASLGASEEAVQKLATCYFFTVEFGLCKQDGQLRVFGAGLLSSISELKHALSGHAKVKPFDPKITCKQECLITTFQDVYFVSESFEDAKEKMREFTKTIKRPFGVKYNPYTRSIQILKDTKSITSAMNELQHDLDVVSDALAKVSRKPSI

CCOC(=O)[C@@H](N)Cc1ccc(-c2cc(O[C@H](c3ccc(Cl)cc3-n3ccc(C)n3)C(F)(F)F)nc(N)n2)cc1 [LX1606, Telotristat ethyl]
Mean PAH activity [%] (human recombinant PAH): 93.78%
Mean TPH1 activity [%] (human recombinant TPH1; 3 nM): 105.40%
Mean TPH1 activity [%] (human recombinant TPH1; 10 nM): 101.82%
Mean TPH1 activity [%] (human recombinant TPH1; 30 nM): 103.86%
Mean TPH1 activity [%] (human recombinant TPH1; 100 nM): 93.76%
Mean TPH1 activity [%] (human recombinant TPH1; 300 nM): 94.76%
Mean TPH1 activity [%] (human recombinant TPH1; 1 μM): 80.38%
Mean TPH1 activity [%] (human recombinant TPH1; 3 μM): 4.22%
Mean TPH1 activity [%] (human recombinant TPH1; 10 μM): 6.31%
